Source: PMC3871589, “Evaluation of STAT3 Signaling in ALDH+ and ALDH+/CD44+/CD24− Subpopulations of Breast Cancer Cells” (PLoS ONE, 2013)

Amino acid sequences for entries named in this document (tags omitted). A change or cut given only in a name is not applied to a line headed by its entry.
UniProt P42338: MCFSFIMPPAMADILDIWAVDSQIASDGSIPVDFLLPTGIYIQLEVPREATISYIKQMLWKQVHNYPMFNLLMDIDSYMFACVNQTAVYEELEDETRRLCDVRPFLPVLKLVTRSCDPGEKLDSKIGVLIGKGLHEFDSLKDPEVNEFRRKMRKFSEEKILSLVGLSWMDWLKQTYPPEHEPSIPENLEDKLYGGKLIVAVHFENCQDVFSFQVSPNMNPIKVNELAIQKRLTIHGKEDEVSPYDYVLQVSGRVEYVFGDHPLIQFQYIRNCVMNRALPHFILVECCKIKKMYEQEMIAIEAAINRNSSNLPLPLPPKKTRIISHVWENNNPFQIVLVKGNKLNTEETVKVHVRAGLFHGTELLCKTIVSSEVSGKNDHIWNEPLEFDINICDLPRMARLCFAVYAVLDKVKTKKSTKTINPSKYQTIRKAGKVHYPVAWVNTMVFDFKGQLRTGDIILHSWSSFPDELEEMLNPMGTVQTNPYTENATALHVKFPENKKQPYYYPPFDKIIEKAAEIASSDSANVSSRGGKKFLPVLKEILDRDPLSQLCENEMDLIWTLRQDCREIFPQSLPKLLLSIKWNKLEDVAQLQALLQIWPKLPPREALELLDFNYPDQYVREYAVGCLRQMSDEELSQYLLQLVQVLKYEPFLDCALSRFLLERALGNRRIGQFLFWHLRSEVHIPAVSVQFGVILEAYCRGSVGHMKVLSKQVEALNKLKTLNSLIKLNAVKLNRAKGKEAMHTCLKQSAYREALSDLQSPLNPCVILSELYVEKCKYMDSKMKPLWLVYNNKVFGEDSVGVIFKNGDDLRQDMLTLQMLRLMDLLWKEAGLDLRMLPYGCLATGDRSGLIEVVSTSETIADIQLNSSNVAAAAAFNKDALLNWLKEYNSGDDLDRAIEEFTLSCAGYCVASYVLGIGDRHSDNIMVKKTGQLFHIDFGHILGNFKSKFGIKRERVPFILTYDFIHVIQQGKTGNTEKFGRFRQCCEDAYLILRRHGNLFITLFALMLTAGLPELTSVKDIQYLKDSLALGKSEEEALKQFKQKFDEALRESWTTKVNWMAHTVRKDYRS

Biological target: PI3Kβ (Homo sapiens, UniProt P42338)
Test: Kinase profiler assay, PI3Kβ (positive control)
Type: biochemical
Experimental: The effects of LLL12 on twenty six purified human protein kinases were performed at the Millipore UK Limited (Dundee, UK) and Reaction Biology Corp. (Malvern, PA) using the Kinase profiler assay. Assays contained a peptide substrate, purified recombinant human protein kinases to be tested, and gamma-labeled ATP, magnesiumion. Radioactive phosphorylated product was measured and quantitated via a scintillation counter.

- IC50: 243 nM
SMILES: O=c1cc(N2CCOCC2)oc2c(-c3ccccc3)cccc12 [LY294002]
